{
  "source": "paper PMC4869338",
  "about": "“Pre-clinical evaluation of CYP 2D6 dependent drug–drug interactions between primaquine and SSRI/SNRI antidepressants” (Malaria Journal, 2016)",
  "key": {"[1]": {"tested_on": "primary human hepatocytes", "experiment": "Primaquine metabolism in pooled primary human hepatocytes pre-treated with antidepressants", "format": "in vitro ADME", "conditions": "primaquine 1 μM, 4-h incubation, no SSRI/SNRI pre-treatment", "description": "Cryopreserved, pooled, human, primary hepatocytes were flash thawed in a 37 °C bath for 1 min. One vial of the thawed hepatocytes (5 million cells/vial) was added to 40 ml of pre-warmed thawing buffer, mixed thoroughly by gentle pipetting, and centrifuged at 72×g for 6 min. The supernatant was then aspirated and the pellet resuspended in hepatocyte incubation buffer (InVitroGRO HI media, BioreclamationIVT, Baltimore, MD, USA). The hepatocytes were then seeded onto 12-well culture plates, approximately 7 × 10^5 hepatocytes/ml per well, and incubated in a humidified 5 % CO2/95 % air incubator for 30 min prior to the addition of compounds.\nPrimaquine metabolism with primary, human, hepatocyte culture was conducted according to the methods published by Jin et al.. Antidepressant compounds (final concentration of 10 μM) were pre-incubated with hepatocyte culture plates for 15 min prior to treatment with primaquine at 37 °C. Following the addition of primaquine (final concentration of 1 μM), aliquots (150 μl) were collected at 0 and 240 min; 240-min incubations were chosen for hepatocyte studies because of the robust primaquine metabolism signal observed on this timescale as previously reported (~40 % [5]). All reactions were stopped by adding an equal volume of acetonitrile. […] Samples were analysed immediately after sample collection."}, "[2]": {"tested_on": "Plasmodium berghei sporozoites", "conditions": "P. berghei infected mice; day 31; primaquine 20 mg/kg/day for 3 days; fluoxetine 4 mg/kg/day for 5 days where given; five mice per group"}, "CYP2C19": {"tested_on": "CYP2C19", "conditions": "cited from earlier work"}, "CYP1A2": {"tested_on": "CYP1A2", "conditions": "cited from earlier work"}, "CYP2D6": {"tested_on": "CYP2D6", "conditions": "cited from earlier work"}, "CYP3A4": {"tested_on": "CYP3A4", "conditions": "cited from earlier work"}},
  "data": [
    {"smiles": "COc1cc(NC(C)CCCN)c2ncccc2c1", "note": "(stereo not drawn) [primaquine]", "values": [
      {"measurement": "relative per cent primaquine remaining", "setting": "[1]", "result": 60, "unit": "%"},
      {"measurement": "mice surviving the duration of the experiment", "setting": "[2]", "result": "5/5"}
    ]},
    {"smiles": "CN[C@H]1CC[C@@H](c2ccc(Cl)c(Cl)c2)c2ccccc21", "note": "[sertraline]", "values": [
      {"measurement": "Enzymes inhibited by antidepressant: CYP2C19", "setting": "CYP2C19", "result": "CYP2D6 (weak to moderate), CYP1A2 (weak), CYP2C9 (weak), CYP2C19 (weak), CYP3A4 (weak)"},
      {"measurement": "Enzymes inhibited by antidepressant: CYP1A2", "setting": "CYP1A2", "result": "CYP2D6 (weak to moderate), CYP1A2 (weak), CYP2C9 (weak), CYP2C19 (weak), CYP3A4 (weak)"},
      {"measurement": "Enzymes inhibited by antidepressant: CYP2D6", "setting": "CYP2D6", "result": "CYP2D6 (weak to moderate), CYP1A2 (weak), CYP2C9 (weak), CYP2C19 (weak), CYP3A4 (weak)"},
      {"measurement": "Enzymes inhibited by antidepressant: CYP3A4", "setting": "CYP3A4", "result": "CYP2D6 (weak to moderate), CYP1A2 (weak), CYP2C9 (weak), CYP2C19 (weak), CYP3A4 (weak)"}
    ]}
  ]
}
